## Antibody variant affinities, Ab-14 light chain, assay 1

Target peptide (SARS-CoV-2 spike, HR2 region): PDVDLGDISGINAS

Parent scFv Ab-14: VH joined to VL by three GGGGS repeats. Changes lie in the light chain CDRs alone.
VH: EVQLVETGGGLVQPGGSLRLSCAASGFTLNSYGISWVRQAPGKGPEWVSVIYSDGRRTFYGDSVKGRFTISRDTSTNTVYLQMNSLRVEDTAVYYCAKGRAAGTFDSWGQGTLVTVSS
VL: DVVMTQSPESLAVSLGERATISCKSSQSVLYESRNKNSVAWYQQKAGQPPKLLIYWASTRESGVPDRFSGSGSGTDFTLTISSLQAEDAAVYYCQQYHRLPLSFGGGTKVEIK

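Phage display of a naive human antibody library on the peptide gave the parent. In library AAYL50, one, two or three CDR residues were substituted; doubles and triples were drawn at random. Affinity was read by AlphaSeq, a pooled yeast mating assay with surface-displayed partners. Binding brings cells together so that they mate, and sequencing counts the barcode pairs among the diploids. A regression on co-assayed BCL2-family reference pairs converts the normalised counts of each replicate to an apparent Kd. The assay was run in three technical replicates.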

Variants are written as CDR1, CDR2 and CDR3 of the light chain (limits as in the source). Parent: KSSQSVLYESRNKNSVA, WASTRES, QQYHRLPLS.
All variants listed here change S26 of the VL, counted from its first residue.
Affinities are written as log10 Kd with Kd in nM; a lower number is a better binder.
Where no diploid with the target was found in that replicate, the entry reads "nd": below detection, most likely a poor binder, though not proof of it.

For KSEQSVLYESRNKNSVA | WMSHRES | QQYHRLPLS, the assay gave nd, nd, 3.19. Variant KSIQSVLTESRNKNSVA | WALTRES | QQYHRLPLS showed nd, nd, 5.15. Variant KSRQSVLYESRNKCIVA | WASTRES | QQYHRLPLS showed nd, nd, nd. For KSGQSVLYESRNKNSVA | WASTRES | QQYHCLSLS, the assay gave nd, nd, nd. For KSPQSVLMESRNKNSVA | WASTRES | QQYHRLPLR, the assay gave 1.44, 1.52, 1.90. Variant KSGQSVLYQSRNKNSVA | SASTRES | QQYHRLPLS showed -0.04, 0.41, 0.12.

For KSAQSVLYESRNKNSVA | WASARES | QQYLRLPLS, the assay gave nd, nd, nd. With KSWQSVLYESRNKNSVA | WASTRAS | QQYHRLPLS the result was 0.69, 0.67, 0.45. Variant KSIQSHLVESRNKNSVA | WASTRES | QQYHRLPLS showed 0.90, 1.13, 1.04. Variant KSQQSVLYESRNKNSVA | WASDRES | LQYHRLPLS gave nd, nd, nd. For KSHQSVLYEERNKNSVA | WAFTRES | QQYHRLPLS, the assay gave 2.81, 2.56, 2.99. With KRLQSVLYESRNKNSVA | WASTRES | QQYHRLPLC the result was nd, nd, nd.

Variant KSMYSVLYYSRNKNSVA | WASTRES | QQYHRLPLS showed 3.10, 2.94, nd. Variant KITQSVLYESRNKNSVA | WASTRNS | QQYHRLPLS showed -0.12, 0.25, 0.19. With KSWQSVLTESRNKNSVA | HASTRES | QQYHRLPLS the result was 0.18, 0.41, 0.26. For KSDQSYLYESRNKLSVA | WASTRES | QQYHRLPLS, the assay gave 3.20, 1.74, 2.47. Variant KSVQSVLYESRNKNSVN | WLSTRES | QQYHRLPLS gave nd, nd, 5.27. For KSITDVLYESRNKNSVA | WASTRES | QQYHRLPLS, the assay gave 0.51, 0.77, 1.52.

With KSAQSVLYESMNKNSVA | WASTRES | QQYHRLQLS the result was 0.72, 0.84, 0.62. For KSFQTVLYESRNKNSVA | WASTRES | QQYHTLPLS, the assay gave 1.87, 1.81, 1.87. Variant QSDQSVLYESRNKNSVA | WASTRES | QNYHRLPLS gave nd, nd, nd. Variant KSMQSVLYEGDNKNSVA | WASTRES | QQYHRLPLS gave 0.82, 0.90, 0.77. Variant KSPQDVLYESRNKDSVA | WASTRES | QQYHRLPLS gave 1.09, 1.40, 1.42. For KSCQSVLYESRVRNSVA | WASTRES | QQYHRLPLS, the assay gave 4.43, 4.44, 3.81.

For KSIQSVLYESFNKWSVA | WASTRES | QQYHRLPLS, the assay gave 4.07, 3.69, 3.85. With KSFQSVLYESRNKNSVD | WTSTRES | QQYHRLPLS the result was nd, 2.52, nd. With KSNQSVLYESRNKNSVA | WAMTRES | QQYHRLPDS the result was 2.24, 1.89, 2.44. For KSRQSVLYESDNKNSVA | WAQTRES | QQYHRLPLS, the assay gave 1.41, 1.37, 1.67. With KSDQSVLYESRVKNSVA | WASTRES | QQYPRLPLS the result was nd, nd, nd. For VSFQSVLYELRNKNSVA | WASTRES | QQYHRLPLS, the assay gave 6.33, nd, 4.80.

Variant KFMQSVLYESRNKNSVA | WASTRES | QQYHRLPLV gave nd, nd, nd. Variant KSFQSVGYESRNKNSVT | WASTRES | QQYHRLPLS gave nd, nd, nd. Variant KSGQSVQYESRNKNSVA | WRSTRES | QQYHRLPLS showed 3.22, 3.05, 3.24. For KSVQSVLYESRNKNSVA | WASTRES | AQYHRLPLS, the assay gave 3.35, 2.62, 2.78. Variant KSDQSVLYESRNKNSDA | WASTRES | QQIHRLPLS showed 6.05, 5.12, 4.33. Variant KSCQSVLYESRNRNSVA | WASTRES | QQYHHLPLS gave 1.72, 1.64, 1.91.

With KSPQSVLYESRNKNSVQ | WASTRES | QQYVRLPLS the result was nd, nd, nd. Variant KSIQSVLYESREKNSVQ | WASTRES | QQYHRLPLS showed 4.81, 4.08, nd. For KSAQSVLYESRNKNSVF | WASTRES | QQYHRLPLF, the assay gave nd, nd, nd.

Repeated from above, the 3 best binders with a signal in all replicates:

CDR-L1	CDR-L2	CDR-L3	log10 Kd (nM) by replicate
KITQSVLYESRNKNSVA	WASTRNS	QQYHRLPLS	-0.12, 0.25, 0.19
KSGQSVLYQSRNKNSVA	SASTRES	QQYHRLPLS	-0.04, 0.41, 0.12
KSWQSVLTESRNKNSVA	HASTRES	QQYHRLPLS	0.18, 0.41, 0.26

Empty control strains, which show no peptide, gave a signal in 18% of pairings with library AAYL50; the median was 4.19 and 95% of these signals were weaker than 2.99. No background was subtracted.

Data: MIT Lincoln Laboratory AlphaSeq set, Engelhart et al. 2022, doi:10.1038/s41597-022-01779-4, as distributed in FLAb.